The target of one assay is h5-HT2A receptors (Homo sapiens, UniProt P28223). Description: Functional activity, FLIPR calcium assay in CHO cells expressing h5-HT2A. Particulars: maximum fluorescent signal compared with 10 μM 5-HT (defined as 100%); tested form: HCl. As for the experimental part: (§1) The functional activity of compounds of formula (I) was assayed using a Fluorimetric Imaging Plate reader (FLIPR) in the following manner.
(§2) CHO cells expressing either the h5-HT2C or h5-HT2A receptors were counted and plated into standard 96 well microtitre plates before the day of testing to give a confluent monolayer. The following day the cells were dye loaded with the calcium sensitive dye Fluo 3-AM by incubation with serum free culture maintenance media containing pluronic acid and Fluo 3-AM dissolved in DMSO at 37° C. in a CO2 incubator at 95% humidity for approximately 90 minutes. Unincorporated dye was removed by washing with Hanks balanced salt solution containing 20 mM HEPES and 2.5 mM probenecid (the assay buffer) using an automated cell washer to leave a total volume of 100 μL/well.
(§3) The drug (dissolved in 50 μL of assay buffer) was added at a rate of 70 μL/sec to each well of the FLIPR 96 well plate during fluorescence measurements. The measurements are taken at 1 sec intervals and the maximum fluorescent signal was measured (approx 10-15 secs after drug addition) and compared with the response produced by 10 μM 5-HT (defined as 100%) to which it is expressed as a percentage response (relative efficacy). Dose response curves were constructed using Graphpad Prism (Graph Software Inc.).

By UniProt entry, the sequences of proteins in these tests, tags left out. Residues count along the entry.
UniProt P28223, whole entry: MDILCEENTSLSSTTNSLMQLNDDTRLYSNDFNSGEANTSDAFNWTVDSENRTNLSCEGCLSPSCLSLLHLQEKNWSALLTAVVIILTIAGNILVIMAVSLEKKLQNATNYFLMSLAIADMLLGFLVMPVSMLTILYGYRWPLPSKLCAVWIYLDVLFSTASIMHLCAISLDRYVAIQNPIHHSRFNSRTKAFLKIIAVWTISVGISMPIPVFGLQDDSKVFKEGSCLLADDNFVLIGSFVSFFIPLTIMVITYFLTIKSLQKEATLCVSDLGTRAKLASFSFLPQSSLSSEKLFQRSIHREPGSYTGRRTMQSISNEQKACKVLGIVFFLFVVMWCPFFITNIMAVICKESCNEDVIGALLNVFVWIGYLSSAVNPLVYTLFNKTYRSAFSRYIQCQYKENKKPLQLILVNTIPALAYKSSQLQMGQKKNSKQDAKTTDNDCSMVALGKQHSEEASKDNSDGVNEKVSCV
UniProt P28335, 33-458 limits assumed: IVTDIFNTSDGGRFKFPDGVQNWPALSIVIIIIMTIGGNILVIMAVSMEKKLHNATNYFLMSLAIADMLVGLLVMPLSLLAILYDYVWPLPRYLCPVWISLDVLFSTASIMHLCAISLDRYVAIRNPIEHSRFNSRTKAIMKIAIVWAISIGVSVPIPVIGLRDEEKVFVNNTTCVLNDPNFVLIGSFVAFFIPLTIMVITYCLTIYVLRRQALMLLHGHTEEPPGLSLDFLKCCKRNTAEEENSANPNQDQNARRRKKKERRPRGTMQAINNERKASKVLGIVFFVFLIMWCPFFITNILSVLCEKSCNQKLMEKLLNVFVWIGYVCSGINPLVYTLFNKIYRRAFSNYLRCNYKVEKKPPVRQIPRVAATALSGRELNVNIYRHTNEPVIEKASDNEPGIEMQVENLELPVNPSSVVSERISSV
UniProt P41595, whole entry: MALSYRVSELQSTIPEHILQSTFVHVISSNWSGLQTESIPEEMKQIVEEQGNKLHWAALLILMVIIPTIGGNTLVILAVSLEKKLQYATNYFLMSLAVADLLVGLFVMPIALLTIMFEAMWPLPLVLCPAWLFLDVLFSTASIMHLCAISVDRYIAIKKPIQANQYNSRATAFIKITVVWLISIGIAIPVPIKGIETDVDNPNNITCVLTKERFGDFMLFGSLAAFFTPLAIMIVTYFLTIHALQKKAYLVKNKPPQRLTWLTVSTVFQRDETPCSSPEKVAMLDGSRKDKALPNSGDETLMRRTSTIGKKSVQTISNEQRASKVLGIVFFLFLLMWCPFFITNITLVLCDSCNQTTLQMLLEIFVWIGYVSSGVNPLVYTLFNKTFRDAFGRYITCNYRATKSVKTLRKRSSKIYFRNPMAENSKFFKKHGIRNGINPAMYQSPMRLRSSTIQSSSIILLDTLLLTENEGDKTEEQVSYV

A further assay concerns the target h5-HT2C (Homo sapiens, UniProt P28335). Kind of assay: Functional activity, FLIPR calcium assay in CHO cells expressing h5-HT2C. The following applies: tested form: HCl. The method, then:
as §1, §2, §3

Another assay addresses 5-HT2C receptor (Homo sapiens, UniProt P28335). Kind of assay: Radioligand binding to the 5-HT2C receptor ([3H]-5-HT, CHO cell line). The following applies: read-out: Ki(2C), tested form: HCl. As for the experimental part: (§4) 1. Binding to Serotonin Receptors
(§5) The binding of compounds of formula (I) to serotonin receptors was determined in vitro by standard methods. The preparations were investigated in accordance with the assays given hereinafter.
Method (a): For the binding to the 5-HT2C receptor the 5-HT2C receptors were radiolabelled with [^3H]-5-HT. The affinity of the compounds for 5-HT2C receptors in a CHO cell line was determined according to the procedure of D. Hoyer, G. Engel and H.O. Kalkman, European J. Pharmacol., 1985, 118, 13-23.

The next assay concerns the target 5-HT2A receptor (Homo sapiens, UniProt P28223). Kind of assay: Radioligand binding to the 5-HT2A receptor ([125I]-DOI, CHO cell line). The following applies: read-out: Ki(2A), tested form: HCl. As for the experimental part: as §4, §5
Method (c): For the binding to the 5-HT2A receptor the 5-HT2A receptors were radiolabelled with [^125I]-DOI. The affinity of the compounds for 5-HT2A receptors in a CHO cell line was determined according to the procedure of D. J. McKenna and S. J. Peroutka, J. Neurosci., 1989, 9/10, 3482-90.

The target in another assay is human 5-HT2B receptors (Homo sapiens, UniProt P41595). Kind of assay: Radioligand binding to the 5-HT2B receptor ([3H]-5-HT, CHO cell line). Particulars: read-out: Ki(2B), tested form: HCl. As for the experimental part:
as §4, §5
Method (b): For the binding to the 5-HT2B receptor the 5-HT2B receptors were radiolabelled with [^3H]-5-HT. The affinity of the compounds for human 5-HT2B receptors in a CHO cell line was determined according to the procedure of K. Schmuck, C. Ullmer, P. Engels and H. Lubbert, FEBS Lett., 1994, 342, 85-90.

pEC50, pKi: −log10 of the molar value.

As a reminder, the pEC50 is −log10 of the EC50, conventionally taken in molar units. Turning to `C[C@H](N)Cn1c2ccsc2c2c(Cl)cc(Cl)cc21`, the “h5-HT2A Relative Efficacy” value on h5-HT2A receptors is listed as 0%. For the same compound, the “h5-HT2C Relative Efficacy” value at h5-HT2C (maximum fluorescent signal compared with 10 μM 5-HT (defined as 100%)) is 93%. Also, at h5-HT2C (read-out: h5-HT2C EC50, FLIPR, CHO cells), the pEC50 was 5.76.

The term pKi denotes −log10 of the Ki, conventionally taken in molar units. With `C[C@H](N)Cn1c2ccccc2c2sccc21`, the results for the negative-log Ki (pKi) on 5-HT2C receptor, on 5-HT2A receptor and on human 5-HT2B receptors were 7.57, 6.97 and 7.24, respectively.
